Assay results taken from PubChem BioAssay AID651957 (The Scripps Research Institute Molecular Screening Center, 2012).
Only a part is listed here, and it is no random draw. Activity calls are given as the source filed them.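 Rule for the calls: active = inhibition above the mean inhibition of all tested compounds plus 3 SD, set per campaign (cut at about 52% in these data); inactive = the rest.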

Sequences of proteins named here, by UniProt entry; tags and fusion partners are left off. A change or cut given only in a name is not applied to a line headed by its entry.
UniProt Q15596: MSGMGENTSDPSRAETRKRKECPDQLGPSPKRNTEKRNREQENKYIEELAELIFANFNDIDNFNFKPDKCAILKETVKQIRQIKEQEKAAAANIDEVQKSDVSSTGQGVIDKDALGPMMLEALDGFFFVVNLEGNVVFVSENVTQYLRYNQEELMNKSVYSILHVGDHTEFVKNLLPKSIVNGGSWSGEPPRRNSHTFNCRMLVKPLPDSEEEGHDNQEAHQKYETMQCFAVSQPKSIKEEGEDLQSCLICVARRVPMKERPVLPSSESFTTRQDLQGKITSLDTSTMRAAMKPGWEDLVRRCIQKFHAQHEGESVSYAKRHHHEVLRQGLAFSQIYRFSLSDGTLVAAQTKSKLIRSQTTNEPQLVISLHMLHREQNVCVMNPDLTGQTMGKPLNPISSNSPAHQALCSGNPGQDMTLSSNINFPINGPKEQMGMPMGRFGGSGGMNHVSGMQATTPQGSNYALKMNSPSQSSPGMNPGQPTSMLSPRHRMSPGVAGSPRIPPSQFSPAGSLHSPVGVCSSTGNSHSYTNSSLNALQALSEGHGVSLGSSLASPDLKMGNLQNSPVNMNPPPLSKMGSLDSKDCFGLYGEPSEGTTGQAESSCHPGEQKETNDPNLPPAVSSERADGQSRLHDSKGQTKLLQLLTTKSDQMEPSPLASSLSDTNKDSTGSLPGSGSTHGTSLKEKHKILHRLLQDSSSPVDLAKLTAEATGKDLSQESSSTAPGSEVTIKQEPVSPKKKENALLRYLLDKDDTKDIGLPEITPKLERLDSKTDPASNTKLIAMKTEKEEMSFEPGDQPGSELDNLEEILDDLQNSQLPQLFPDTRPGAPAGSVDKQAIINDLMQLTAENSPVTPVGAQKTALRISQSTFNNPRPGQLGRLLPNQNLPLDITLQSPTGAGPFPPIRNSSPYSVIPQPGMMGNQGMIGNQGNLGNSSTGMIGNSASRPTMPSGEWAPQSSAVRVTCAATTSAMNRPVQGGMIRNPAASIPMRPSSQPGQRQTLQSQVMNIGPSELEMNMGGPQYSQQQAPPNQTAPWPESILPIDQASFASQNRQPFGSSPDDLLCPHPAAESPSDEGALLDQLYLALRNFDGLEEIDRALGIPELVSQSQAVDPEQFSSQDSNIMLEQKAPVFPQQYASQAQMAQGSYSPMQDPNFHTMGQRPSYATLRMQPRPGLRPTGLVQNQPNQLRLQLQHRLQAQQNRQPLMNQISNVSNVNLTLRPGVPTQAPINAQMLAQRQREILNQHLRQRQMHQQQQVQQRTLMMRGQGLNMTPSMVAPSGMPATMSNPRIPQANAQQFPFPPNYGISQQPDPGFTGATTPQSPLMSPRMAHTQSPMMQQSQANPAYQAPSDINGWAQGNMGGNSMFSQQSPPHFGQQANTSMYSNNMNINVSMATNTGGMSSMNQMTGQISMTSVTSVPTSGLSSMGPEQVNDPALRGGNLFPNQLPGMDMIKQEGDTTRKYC

The compounds below were run against Nuclear receptor coactivator 2 (Homo sapiens) (UniProt Q15596) (assay: decrease of SRC2 fusion reporter luminescence – cell-based, SRC2 inhibitor project, primary screen (AID 651957;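 note: 0% = DMSO treated cells and 100% = cells given Gossypol at 36 µM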)). Conditions: HEK293 GAL4-SRC2 luciferase reporter, at 9 µM, stronger effect = higher value.

Row | SMILES | inhibition
1 | O=P(Nc1nccs1)(Oc1ccccc1)Oc1ccccc1 | inactive: -21.5%
2 | CCOP1(=S)c2c(C)nn(CCC#N)c2N=C(c2ccccc2F)N1C (configuration not stated) | inactive: -17.5%
3 | Nc1ccccc1[As](=O)(O)c1ccccc1 | inactive: -11.9%
4 | O=C(O)COc1ccc([As](=O)(O)O)cc1[N+](=O)[O-] | inactive: 5.47%
5 | NC(=O)Nc1ccc([As](=O)(O)O)cc1 | inactive: -10.1%
6 | CN(C(=O)Cc1ccc(Cl)c(Cl)c1)[C@H]1CC[C@@]2(CCCO2)C[C@@H]1N1CCCC1 | inactive: -2.47%
7 | CN(C)C(=O)c1cc([N+](=O)[O-])cc2c1-c1c(cc([N+](=O)[O-])cc1[N+](=O)[O-])C2=O | inactive: 9.01%
8 | O=[N+]([O-])c1ccc2c(c1)nnn2O | inactive: 13.8%
9 | CCOP1(=S)c2c(C)nn(CCC#N)c2N=C(c2ccc(F)cc2)N1C (configuration not stated) | inactive: -8.76%
10 | CN(C(=O)Cc1ccccc1)[C@@H]1CC[C@]2(CCCO2)C[C@H]1N1CCCC1 | inactive: -12.8%
11 | N#CCCN(C(=O)COC(=O)C(O)(c1ccccc1)c1ccccc1)c1ccc(F)cc1 | inactive: 6.64%
12 | CS(=O)(=O)c1ccc(Cl)c(NC(=O)COC(=O)C(O)(c2ccccc2)c2ccccc2)c1 | inactive: 14.1%
13 | COc1cc(C(=O)NCC2(N3CCOCC3)CCCCC2)cc(Cl)c1OC(C)C | inactive: 6.82%
14 | O=[As](O)(O)c1cccnc1 | inactive: -10.7%
15 | O=C(OC1CN2CCC1CC2)c1ccc(Cl)cc1 (configuration not stated) | inactive: -7.01%
16 | O=[As](O)(c1cccc(O)c1)c1cccc(O)c1 | inactive: 3.12%
17 | Cc1cccc(OCC(=O)OC2CN3CCC2CC3)c1 (configuration not stated) | inactive: 3.9%
18 | CCCOP(=S)(Nc1nc(N)cc(=O)[nH]1)OCCC | inactive: 10.7%
19 | Nc1cccc2c([As](=O)(O)O)cccc12 | inactive: 3.13%
20 | Cc1ccc(NCCc2c([N+](=O)[O-])cc([N+](=O)[O-])cc2[N+](=O)[O-])cc1 | inactive: -14.4%
21 | CCOP(=O)(Nc1cccc2ccccc12)OCC | inactive: -16.8%
22 | COc1cc(C2NCCC3(OCCO3)C2(C)C)cc(OC)c1OC (configuration not stated) | inactive: 3.35%
23 | CN(CCCl)Cc1cc(Cl)c(NC2=NCCN2)c(Cl)c1 | inactive: -28.8%
24 | CCOP(=O)(Nc1ccc(C)cn1)OCC | inactive: 13.7%
25 | CCOP(=O)(NC(=NC(C)c1ccccc1)NC(C)c1ccccc1)OCC (configuration not stated) | inactive: 3.95%
26 | O=P1(Nc2ccccn2)COc2ccccc2OC1 | inactive: -2.56%
27 | CCC1=CC2Cc3nc4ccc(Cl)cc4c(N)c3C(C1)C2 (configuration not stated) | inactive: -12%
